Data: US20040106557A1 (LICENTIA, published 2004)

The chains behind the UniProt entries cited, without tags or fusion partners. Residues count along the entry.
UniProt P07288, 25-261: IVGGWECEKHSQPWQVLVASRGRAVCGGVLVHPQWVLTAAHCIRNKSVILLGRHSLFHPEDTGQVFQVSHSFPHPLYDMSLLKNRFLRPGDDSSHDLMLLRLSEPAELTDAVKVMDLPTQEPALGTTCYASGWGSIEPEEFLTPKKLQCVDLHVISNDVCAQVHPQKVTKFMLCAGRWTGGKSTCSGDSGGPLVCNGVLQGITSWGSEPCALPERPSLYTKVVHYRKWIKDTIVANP

Biological target: T1, Prostate specific antigen (PSA), purified from human seminal fluid (human, UniProt P07288)
T1 construct: mature; Mostly captured on wells by MAb 5E4 (IFMA) or on the chip by MAb H117 (SPR); in solution in enzyme assays; also called free PSA; active PSA
Test: GST-peptide IFMA, PSA captured by MAb 5E4
Procedure: The binding of individual phage clones to PSA was tested by IFMA (phage IFMA). In the phage IFMA, about 30 ng of PSA was added to MAb 5E4 coated wells for 1 h. After washing (Buffer: 150 mM NaCl, 7.7 mM NaN₃, 0.2 g/L Tween 20), 15 mL of phage and 200 μl assay buffer was added. After incubation for 1 h, the wells were washed and filled with 200 μl of assay buffer containing 50 ng europium-labeled anti phage monoclonal antibody recognizing the M13 coat protein of the phage. After incubation for 60 min, the wells were washed 4 times, and enhancement solution (EG&G-Wallac) was added. The fluorescence was quantified with a 1234 DELFIA Research fluorometer (EG&G-Wallac).
Binding of GST-peptide to PSA was determined by an IFMA (GST-peptide IFMA) similar to the one for phage peptides except that Eu³⁺-labeled antibody to GST was used. Various amounts of GST-peptide or wild type GST were added to wells containing captured PSA in 200 μL of assay buffer and incubated for 1 h. To test the effect of Zn²⁺ on the binding between GST-peptide and PSA, various concentrations of Zn²⁺ (1-200 μM) were added to the buffer in the incubation step of GST-peptide and PSA. […] After further incubation and washing the bound fluorescence was measured as described above. […] After capturing the various proteinases or PSA complexes, GST-peptide was added and binding was monitored as described above for the GST-peptide IFMA.

B1: Wild type GST (other, UniProt P08515 1-218, looked up)
chain: MSPILGYWKIKGLVQPTRLLLEYLEEKYEEHLYERDEGDKWRNKKFELGLEFPNLPYYIDGDVKLTQSMAIIRYIADKHNMLGGCPKERAEISMLEGAVLDIRYGVSRIAYSKDFETLKVDFLSKLPEMLKMFEDRLCHKTYLNGDHVTHPDFMLYDALDVVLYMDPMCLDAFPKLVCFKKRIEAIPQIDKYLKSSKYIAWPLQGWQATFGGGDHPPK
notes: Control; also called wild type glutathione S-transferase
B1: no binding.
